Assays:
[1] = target: Acetylcholinesterase (Homo sapiens) (UniProt P22303); experiment: Percent reactivation of acetylcholinesterase after 2 hr incubation
[2] = target: Acetylcholinesterase (Homo sapiens) (UniProt P22303); experiment: Percent reactivation of acetylcholinesterase after 4 hr incubation
[3] = target: Acetylcholinesterase (Homo sapiens) (UniProt P22303); experiment: Percent reactivation of acetylcholinesterase after 24 hr incubation
[4] = target: Acetylcholinesterase (Homo sapiens) (UniProt P22303); experiment: kr for reactivation of acetylcholinesterase at concentration of 2M*10e4 [HOX] and 10 Me-1*10e-3 [OX]e-1 was determined; Expressed as kr, M*10e3
[5] = target: Acetylcholinesterase (Homo sapiens) (UniProt P22303); experiment: Kinetic constant was determined for reactivation of acetylcholinesterase at concentration of 2M*10e4 [HOX] and 10 Me-1*10e-3 [OX]e-1; (kobsd-ka)e-1, min
[6] = target: Acetylcholinesterase (Homo sapiens) (UniProt P22303); experiment: Ratio of Kr/kmax for reactivation of acetylcholinesterase at concentration of 2M*10e4 [HOX] and 10 Me-1*10e-3 [OX]e-1 was determined; Expressed as Kr/kmax, M-min*10e2
[7] = target: Acetylcholinesterase (Homo sapiens) (UniProt P22303); experiment: Kinetic constant was determined for reactivation of acetylcholinesterase at concentration of 20 M*10e4 [HOX] and 1Me-1*10e-3 [OX]e-1; (kobsd-ka)e-1, min
[8] = target: Acetylcholinesterase (Homo sapiens) (UniProt P22303); experiment: Pseudo first order observed rate constants for reactivation of acetylcholinesterase at 4M*10e4 HOX and 2M*10e4OX; Kobs (min-1 X 10e3)
[9] = target: Acetylcholinesterase (Homo sapiens) (UniProt P22303); experiment: Kr for reactivation of acetylcholinesterase at concentration of 2M*10e4 [HOX] and 10 Me-1*10e-3 [OX]e-1 was determined; Expressed as kr, M*10e4
[10] = target: Acetylcholinesterase (Homo sapiens) (UniProt P22303); experiment: Pseudo first order observed rate constants for reactivation of acetylcholinesterase at 20 M*10e4 HOX and 10M*10e4OX; Kobs (min-1 X 10e3)
[11] = target: Acetylcholinesterase (Homo sapiens) (UniProt P22303); experiment: Maximum attainable percent reactivation obtained for a range of concentrations of 20 M*10e4 HOX and 10M*10e4OX
[12] = target: Acetylcholinesterase (Homo sapiens) (UniProt P22303); experiment: Pseudo first order observed rate constants for reactivation of acetylcholinesterase at 2M*10e4 HOX and 1M*10e4OX; Kobs (min-1 X 10e3)
[13] = target: Acetylcholinesterase (Homo sapiens) (UniProt P22303); experiment: Ratio of [EOP']infinity to that of [EOH]infinity for reactivation of acetylcholinesterase at concentration of 2M*10e4 [HOX] and 10 Me-1*10e-3 [OX]e-1; Expressed as [EOP']infinity/[EOH]infinity
[14] = target: Acetylcholinesterase (Homo sapiens) (UniProt P22303); experiment: ka for reactivation of acetylcholinesterase at concentration of 2M*10e4 [HOX] and 10 Me-1*10e-3 [OX]e-1 was determined; Expressed as ka, 1/min 1*10e3
[15] = target: Acetylcholinesterase (Homo sapiens) (UniProt P22303); experiment: Ratio of kaKr to that of kr for reactivation of acetylcholinesterase at concentration of 2M*10e4 [HOX] and 10 Me-1*10e-3 [OX]e-1 was determined; Expressed as kaKr/kr; M*10e4
[16] = target: Acetylcholinesterase (Homo sapiens) (UniProt P22303); experiment: Ratio of ka to that of kr for reactivation of acetylcholinesterase at concentration of 2M*10e4 [HOX] and 10 Me-1*10e-3 [OX]e-1 was determined
[17] = target: Acetylcholinesterase (Homo sapiens) (UniProt P22303); experiment: Kinetic constant was determined for reactivation of acetylcholinesterase at concentration of 4M*10e4 [HOX] and 5Me-1*10e-3 [OX]e-1; (kobsd-ka)e-1, min
[18] = target: Acetylcholinesterase (Homo sapiens) (UniProt P22303); experiment: kb for reactivation of acetylcholinesterase at concentration of 2M*10e4 [HOX] and 10 Me-1*10e-3 [OX]e-1 was determined; Expressed as kb, 1/M 1/min
[19] = target: Acetylcholinesterase (Homo sapiens) (UniProt P22303); experiment: keff (rel) for reactivation of acetylcholinesterase at concentration of 2M*10e4 [HOX] and 10 Me-1*10e-3 [OX]e-1 was determined; Expressed as keff (rel)
[20] = target: Acetylcholinesterase (Homo sapiens) (UniProt P22303); experiment: Ratio of [EOP'']infinity to that of [EOH]infinity for reactivation of acetylcholinesterase at concentration of 20 M*10e4 [HOX] and 1Me-1*10e-3 [OX]e-1; Expressed as [EOP'']infinity/[EOH]infinity
[21] = target: Acetylcholinesterase (Homo sapiens) (UniProt P22303); experiment: Maximum attainable percent reactivation obtained for a range of concentrations of 2M*10e4 HOX and 1M*10e4OX
[22] = target: Acetylcholinesterase (Homo sapiens) (UniProt P22303); experiment: Ratio of [EOP'']infinity to that of [EOH]infinity for reactivation of acetylcholinesterase at concentration of 4M*10e4 [HOX] and 5Me-1*10e-3 [OX]e-1; Expressed as [EOP'']infinity/[EOH]infinity
[23] = target: Acetylcholinesterase (Homo sapiens) (UniProt P22303); experiment: Maximum attainable percent reactivation obtained for a range of concentrations of 4M*10e4 HOX and 2M*10e4OX
[24] = target: Acetylcholinesterase (Homo sapiens) (UniProt P22303); experiment: keff for reactivation of acetylcholinesterase at concentration of 2M*10e4 [HOX] and 10 Me-1*10e-3 [OX]e-1 was determined; Expressed as keff, 1/M 1/min
[25] = target: Acetylcholinesterase (Homo sapiens) (UniProt P22303); experiment: 1/kmax for reactivation of acetylcholinesterase at concentration of 2M*10e4 [HOX] and 10 Me-1*10e-3 [OX]e-1 was determined; Expressed as 1/kmax, min

Sequences of proteins named here, by UniProt entry; tags and fusion partners are left off. A change or cut given only in a name is not applied to a line headed by its entry.
UniProt P22303: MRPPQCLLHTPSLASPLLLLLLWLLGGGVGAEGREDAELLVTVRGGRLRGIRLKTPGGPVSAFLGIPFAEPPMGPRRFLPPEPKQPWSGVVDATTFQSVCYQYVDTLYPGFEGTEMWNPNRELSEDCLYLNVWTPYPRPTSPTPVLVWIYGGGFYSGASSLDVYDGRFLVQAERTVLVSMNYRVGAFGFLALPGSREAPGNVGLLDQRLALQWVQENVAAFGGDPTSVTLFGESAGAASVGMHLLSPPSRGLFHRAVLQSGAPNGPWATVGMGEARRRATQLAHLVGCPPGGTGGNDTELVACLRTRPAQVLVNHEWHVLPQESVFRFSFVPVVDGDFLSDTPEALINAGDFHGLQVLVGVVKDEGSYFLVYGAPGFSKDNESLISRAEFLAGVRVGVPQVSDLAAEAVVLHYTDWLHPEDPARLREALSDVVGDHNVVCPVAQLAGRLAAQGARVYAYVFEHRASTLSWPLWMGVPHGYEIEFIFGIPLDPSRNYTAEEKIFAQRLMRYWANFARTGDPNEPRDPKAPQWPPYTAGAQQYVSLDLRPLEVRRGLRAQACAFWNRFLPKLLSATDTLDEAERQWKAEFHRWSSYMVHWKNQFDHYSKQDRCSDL

COc1ccc(C(=O)/C(=N/O)SCCN(C(C)C)C(C)C)cc1
Reactivation [1]: 4.3%
Reactivation [2]: 2.8%
Reactivation [3]: 21%

CC[N+](C)(CC)CCS/C(=N\O)C(=O)c1ccc(OC)cc1
Reactivation [1]: 5.6%
Reactivation [2]: 9.5%
Reactivation [3]: 18%

CCN(CC)CCS/C(=N\O)C(=O)c1ccccc1
kr [4]: 9300 min⁻¹
1/kobsd-ka [5]: 231 min
Kr/kmax [6]: 140 M-min
1/kobsd-ka [7]: 106 min
Reactivation [1]: 63%
k obs [8]: 114 s⁻¹
Kr [9]: 13000 M
k obs [10]: 184 s⁻¹
Reactivation [2]: 83%
Reactivation [11]: 4.42%
k obs [12]: 98.5 s⁻¹
[EOP']infinity/[EOH]infinity [13]: 3.12
ka [14]: 2000 min⁻¹
kaKr/kr [15]: 32000 M
ka/kr [16]: 0.21
1/kobsd-ka [17]: 190 min
kb [18]: 1.17 M⁻¹ s⁻¹
k eff (rel) [19]: 3.1
[EOP']infinity/[EOH]infinity [20]: 0.203
Reactivation [21]: 3.19%
[EOP']infinity/[EOH]infinity [22]: 2.37
Reactivation [23]: 3.39%
k eff [24]: 0.567 M⁻¹ s⁻¹
Reactivation [3]: 80%
1/kmax [25]: 103 min

COc1ccc(C(=O)/C(=N/O)SCCCN(C)C)cc1
Reactivation [1]: 0%
Reactivation [2]: 0%
Reactivation [3]: 16%

CCN(CC)CCS/C(=N\O)C(=O)c1ccc(Br)cc1
Reactivation [1]: 8%
Reactivation [2]: 8%
Reactivation [3]: 9%

CCN(CC)CCS/C(=N\O)C(C)=O
Reactivation [1]: 13%
Reactivation [2]: 28%
Reactivation [3]: 23%
